Test results taken from patent publication US9145391B2, “Bipyridylaminopyridines as Syk inhibitors” (Merck Sharp & Dohme Corp., priority 2011, dated 2015).

Each molecule was assayed against recombinant human GST-Syk (Homo sapiens (Human), UniProt P43405) (assay: Homogeneous Time-Resolved Fluorescence (HTRF) assay for the recombinant human Syk enzyme). Details: read-out: rhSyk IC50, recombinant human GST-Syk 5 pM, ATP 25 μM.
Assay type: biochemical

Row | Structure (SMILES) | IC50
1 | Cc1cc(Nc2cc(C(F)(F)F)ccn2)nc(-c2ccc(N3CCN(C(=O)c4ccc5cc[nH]c5c4)CC3)nc2)c1 | 61 nM
2 | Cc1ccnc(Nc2cc(C)cc(-c3ccc(NC4CCNC4=O)nc3)n2)c1 (racemic) | 27 nM
3 | Cc1cc(Nc2cc(C(F)(F)F)ccn2)nc(-c2ccc([C@@]3(O)CC[C@@H](C(N)=O)C(C)(C)C3)nc2)c1 (relative stereo) | 25 nM

Other lines, results leading:

Row | IC50 | Structure (SMILES)
4 | 45 nM | Cc1ccnc(Nc2cc(C)cc(-c3ccc(N4CCCC4C(=O)O)nc3)n2)c1 (racemic) [2-6]
5 | 43 nM | Cc1ccnc(Nc2cc(C)cc(-c3ccc(N4CCC4C(=O)O)nc3)n2)c1 (racemic) [2-7]
6 | 226 nM | Cc1ccnc(Nc2cc(C)cc(-c3ccc(N4CCCC4C(=O)O)nc3)n2)c1 (racemic) [2-13]
7 | 234 nM | Cc1ccnc(Nc2cc(C)cc(-c3ccc(N4CCC4C(=O)O)nc3)n2)c1 (racemic) [2-14]
8 | 298 nM | Cc1ccnc(Nc2cc(C)cc(-c3ccc(NC(C)(C)C(=O)O)nc3)n2)c1 [2-15]
